Source: patent US7666885B2, “Enzyme inhibitors” (Consejo Superior de Investigaciones Cientificas, priority 2000, dated 2010)

Sequences of proteins named here, by UniProt entry; tags and fusion partners are left off.
UniProt P49841, whole entry: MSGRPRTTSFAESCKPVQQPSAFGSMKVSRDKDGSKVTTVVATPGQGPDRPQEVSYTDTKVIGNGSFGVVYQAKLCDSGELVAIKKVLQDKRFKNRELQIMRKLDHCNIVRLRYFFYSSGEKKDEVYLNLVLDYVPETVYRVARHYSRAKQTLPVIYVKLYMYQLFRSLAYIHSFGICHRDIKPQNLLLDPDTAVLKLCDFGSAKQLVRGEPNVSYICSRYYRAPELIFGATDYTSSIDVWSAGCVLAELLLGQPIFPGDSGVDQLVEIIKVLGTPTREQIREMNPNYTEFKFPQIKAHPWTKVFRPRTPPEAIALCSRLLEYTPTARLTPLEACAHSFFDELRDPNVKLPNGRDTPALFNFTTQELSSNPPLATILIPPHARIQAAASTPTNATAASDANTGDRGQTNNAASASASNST

Legend:
[1] = target: GSK-3β (Homo sapiens, UniProt P49841); test: GSK-3β inhibition (radiometric, GS 1 peptide); assay type: biochemical; conditions: GSK-3 enzyme (Sigma), 15 μM ATP, Tables 3, 3a, 4
[2] = tested on: N2A cells; test: Cell cycle blockade; conditions: N2A cell cultures, Table 5

| IC50 [2] [µM] | SMILES | IC50 [1] [µM] |
| --- | --- | --- |
|  | O=c1sn(-c2ccccc2)c(=O)n1-c1ccccc1 | 8 |
|  | CCn1c(=O)[nH]sc1=Nc1ccccn1 | > 100 |
|  | CCn1sc(=O)n(-c2ccccc2)c1=N | 65 |
|  | CCNC(=O)N=c1n(CC)sc(=O)n1-c1ccccc1 | 75 |
|  | CCn1c(=Nc2ccccn2)sn(C)c1=S | 10 |
| 2 to 3 | O=c1sn(Cc2ccccc2)c(=O)n1Cc1ccccc1 |  |
|  | CCn1c(=Nc2ccccn2)sn(C)c1=O | > 100 |
|  | CCn1sc(=Nc2ccccn2)n(CC)c1=O | > 100 |
|  | CCOC(=O)N=c1n(C(=O)OCC)sc(=S)n1-c1ccccc1 | > 10 |
|  | Cn1sc(=Nc2ccccn2)n(C)c1=O | > 100 |
|  | CCn1sc(=O)n(-c2ccccc2)c1=O | 6 |
